The target of experiment [1] is [Pyruvate dehydrogenase (acetyl-transferring)] kinase isozyme 1, mitochondrial (Homo sapiens) (UniProt Q15118). Kind of experiment: Inhibition of human PDK1 at 1.0 uM by Eurofins kinase assay relative to control.
Experiment [2] addresses T1, Serine/threonine-protein kinase Chk1 (Homo sapiens) (UniProt O14757).
T1 sequence (whole entry): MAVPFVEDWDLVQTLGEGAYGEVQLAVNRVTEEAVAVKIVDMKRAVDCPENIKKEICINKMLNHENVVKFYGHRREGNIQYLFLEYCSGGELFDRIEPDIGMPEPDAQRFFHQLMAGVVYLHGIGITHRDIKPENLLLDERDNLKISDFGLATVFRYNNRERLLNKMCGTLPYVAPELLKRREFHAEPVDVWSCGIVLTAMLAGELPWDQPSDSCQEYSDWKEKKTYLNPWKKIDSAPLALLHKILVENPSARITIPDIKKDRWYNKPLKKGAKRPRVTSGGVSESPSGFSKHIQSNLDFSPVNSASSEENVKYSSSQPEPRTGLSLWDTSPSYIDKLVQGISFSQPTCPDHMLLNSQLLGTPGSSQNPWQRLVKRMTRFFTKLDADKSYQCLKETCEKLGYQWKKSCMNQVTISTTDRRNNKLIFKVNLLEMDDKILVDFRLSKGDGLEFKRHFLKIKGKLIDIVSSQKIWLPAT
Kind of experiment: Inhibition of human CHK1 at 1.0 uM by Eurofins kinase assay relative to control.

Chains of the proteins cited; added tags and fusions are not shown. Lines headed by an entry give the natural chain unless they say otherwise; changes in a name come on top.
UniProt Q15118, whole entry, looked up: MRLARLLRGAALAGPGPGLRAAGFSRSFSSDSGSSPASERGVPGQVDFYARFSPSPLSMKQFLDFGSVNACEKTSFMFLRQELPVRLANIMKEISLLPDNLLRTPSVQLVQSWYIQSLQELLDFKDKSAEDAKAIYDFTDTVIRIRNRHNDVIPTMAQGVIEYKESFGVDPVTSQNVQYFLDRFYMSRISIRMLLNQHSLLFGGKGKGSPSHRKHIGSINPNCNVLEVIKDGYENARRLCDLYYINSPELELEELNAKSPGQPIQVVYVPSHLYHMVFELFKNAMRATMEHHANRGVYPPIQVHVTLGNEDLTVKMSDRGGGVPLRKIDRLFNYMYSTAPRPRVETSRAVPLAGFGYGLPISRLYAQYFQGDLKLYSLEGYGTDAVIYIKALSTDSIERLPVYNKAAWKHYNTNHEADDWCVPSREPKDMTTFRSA
UniProt P67870, whole entry, looked up: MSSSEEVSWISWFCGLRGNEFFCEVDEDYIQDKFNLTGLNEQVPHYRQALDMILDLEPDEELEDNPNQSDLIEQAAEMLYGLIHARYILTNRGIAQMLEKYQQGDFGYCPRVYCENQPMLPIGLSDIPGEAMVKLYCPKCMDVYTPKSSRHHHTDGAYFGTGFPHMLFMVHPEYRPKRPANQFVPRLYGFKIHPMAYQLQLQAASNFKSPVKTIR
UniProt P68400, whole entry, looked up: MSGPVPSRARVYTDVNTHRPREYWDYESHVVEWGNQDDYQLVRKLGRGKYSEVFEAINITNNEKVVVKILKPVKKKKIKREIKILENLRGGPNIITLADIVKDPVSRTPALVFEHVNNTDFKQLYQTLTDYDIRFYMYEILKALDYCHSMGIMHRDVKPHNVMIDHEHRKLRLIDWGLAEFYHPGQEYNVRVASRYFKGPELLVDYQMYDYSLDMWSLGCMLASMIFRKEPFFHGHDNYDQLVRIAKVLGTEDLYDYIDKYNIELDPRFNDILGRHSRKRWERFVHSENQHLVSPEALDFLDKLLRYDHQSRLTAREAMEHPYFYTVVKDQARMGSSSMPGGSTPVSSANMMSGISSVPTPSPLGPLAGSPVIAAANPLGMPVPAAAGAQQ
UniProt Q8NEV1, whole entry, looked up: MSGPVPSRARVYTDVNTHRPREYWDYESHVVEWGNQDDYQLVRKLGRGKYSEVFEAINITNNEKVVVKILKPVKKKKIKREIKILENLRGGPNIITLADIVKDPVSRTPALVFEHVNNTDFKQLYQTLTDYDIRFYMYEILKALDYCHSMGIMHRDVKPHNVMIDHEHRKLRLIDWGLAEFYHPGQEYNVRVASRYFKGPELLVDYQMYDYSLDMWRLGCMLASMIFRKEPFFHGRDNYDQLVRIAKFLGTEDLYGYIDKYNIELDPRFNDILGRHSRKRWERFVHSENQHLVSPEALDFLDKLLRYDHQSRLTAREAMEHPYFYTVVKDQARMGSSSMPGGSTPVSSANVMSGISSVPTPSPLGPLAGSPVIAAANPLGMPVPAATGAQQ
UniProt Q13131: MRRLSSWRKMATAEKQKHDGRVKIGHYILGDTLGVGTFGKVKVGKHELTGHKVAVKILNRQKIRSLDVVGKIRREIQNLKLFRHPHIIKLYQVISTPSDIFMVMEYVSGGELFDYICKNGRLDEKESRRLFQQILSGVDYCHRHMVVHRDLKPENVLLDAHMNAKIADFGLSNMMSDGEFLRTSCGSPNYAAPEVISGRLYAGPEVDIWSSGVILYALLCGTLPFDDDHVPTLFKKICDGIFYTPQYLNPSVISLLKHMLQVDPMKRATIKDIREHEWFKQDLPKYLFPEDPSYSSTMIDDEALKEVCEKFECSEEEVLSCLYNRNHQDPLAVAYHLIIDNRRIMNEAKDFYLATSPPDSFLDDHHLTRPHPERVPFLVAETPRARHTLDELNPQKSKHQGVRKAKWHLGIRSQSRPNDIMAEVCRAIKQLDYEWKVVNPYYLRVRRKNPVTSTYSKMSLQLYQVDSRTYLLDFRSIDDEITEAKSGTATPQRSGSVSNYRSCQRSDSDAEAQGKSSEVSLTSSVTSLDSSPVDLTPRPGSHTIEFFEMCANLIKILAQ
UniProt Q00535, whole entry, looked up: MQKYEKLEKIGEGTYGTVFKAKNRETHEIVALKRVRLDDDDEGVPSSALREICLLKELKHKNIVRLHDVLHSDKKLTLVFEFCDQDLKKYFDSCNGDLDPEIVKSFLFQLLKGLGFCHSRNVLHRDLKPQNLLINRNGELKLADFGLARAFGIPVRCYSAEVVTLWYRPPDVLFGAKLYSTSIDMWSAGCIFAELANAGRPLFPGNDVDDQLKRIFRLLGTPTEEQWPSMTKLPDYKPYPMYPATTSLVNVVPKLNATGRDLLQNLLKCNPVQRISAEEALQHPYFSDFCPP
UniProt P20248, whole entry, looked up: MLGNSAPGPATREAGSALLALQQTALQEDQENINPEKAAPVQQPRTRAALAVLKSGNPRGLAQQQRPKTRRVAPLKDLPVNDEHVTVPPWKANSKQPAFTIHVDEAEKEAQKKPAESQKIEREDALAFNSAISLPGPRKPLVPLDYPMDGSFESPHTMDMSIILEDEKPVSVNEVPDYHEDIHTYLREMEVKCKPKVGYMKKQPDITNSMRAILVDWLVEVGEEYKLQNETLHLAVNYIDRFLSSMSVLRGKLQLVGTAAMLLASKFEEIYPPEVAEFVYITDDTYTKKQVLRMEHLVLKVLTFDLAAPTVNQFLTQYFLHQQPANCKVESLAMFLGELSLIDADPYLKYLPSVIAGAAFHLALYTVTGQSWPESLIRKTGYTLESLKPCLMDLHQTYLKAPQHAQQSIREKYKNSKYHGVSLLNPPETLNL
UniProt P54646: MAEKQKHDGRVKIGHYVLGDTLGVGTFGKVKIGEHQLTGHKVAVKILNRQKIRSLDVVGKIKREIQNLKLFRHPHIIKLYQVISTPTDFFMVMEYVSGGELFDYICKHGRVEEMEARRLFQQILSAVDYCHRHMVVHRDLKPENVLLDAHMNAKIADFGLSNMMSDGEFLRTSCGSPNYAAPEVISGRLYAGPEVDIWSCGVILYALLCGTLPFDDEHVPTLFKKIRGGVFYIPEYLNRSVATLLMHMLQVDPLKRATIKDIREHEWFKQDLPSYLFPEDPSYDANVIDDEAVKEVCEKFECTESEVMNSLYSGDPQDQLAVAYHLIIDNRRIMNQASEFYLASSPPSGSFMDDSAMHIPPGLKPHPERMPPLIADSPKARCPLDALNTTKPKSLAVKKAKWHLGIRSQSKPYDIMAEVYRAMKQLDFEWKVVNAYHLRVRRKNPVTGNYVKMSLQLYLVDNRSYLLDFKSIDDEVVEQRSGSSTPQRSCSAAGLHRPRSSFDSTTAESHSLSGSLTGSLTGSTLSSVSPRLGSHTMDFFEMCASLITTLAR
UniProt P06239: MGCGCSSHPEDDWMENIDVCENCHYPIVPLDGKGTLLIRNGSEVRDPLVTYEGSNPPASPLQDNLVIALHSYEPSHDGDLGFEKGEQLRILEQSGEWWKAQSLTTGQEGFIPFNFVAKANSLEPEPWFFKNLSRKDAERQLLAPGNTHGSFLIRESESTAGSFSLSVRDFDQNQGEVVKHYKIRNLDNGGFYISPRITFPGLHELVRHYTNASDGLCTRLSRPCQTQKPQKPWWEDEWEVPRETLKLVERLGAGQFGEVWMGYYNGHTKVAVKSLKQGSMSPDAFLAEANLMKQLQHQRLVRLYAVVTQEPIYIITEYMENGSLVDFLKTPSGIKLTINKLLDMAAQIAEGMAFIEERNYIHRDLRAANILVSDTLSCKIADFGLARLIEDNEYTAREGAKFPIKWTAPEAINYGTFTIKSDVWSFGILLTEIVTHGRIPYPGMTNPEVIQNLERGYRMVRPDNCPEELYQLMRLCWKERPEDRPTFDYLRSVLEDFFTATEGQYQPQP
UniProt P31749: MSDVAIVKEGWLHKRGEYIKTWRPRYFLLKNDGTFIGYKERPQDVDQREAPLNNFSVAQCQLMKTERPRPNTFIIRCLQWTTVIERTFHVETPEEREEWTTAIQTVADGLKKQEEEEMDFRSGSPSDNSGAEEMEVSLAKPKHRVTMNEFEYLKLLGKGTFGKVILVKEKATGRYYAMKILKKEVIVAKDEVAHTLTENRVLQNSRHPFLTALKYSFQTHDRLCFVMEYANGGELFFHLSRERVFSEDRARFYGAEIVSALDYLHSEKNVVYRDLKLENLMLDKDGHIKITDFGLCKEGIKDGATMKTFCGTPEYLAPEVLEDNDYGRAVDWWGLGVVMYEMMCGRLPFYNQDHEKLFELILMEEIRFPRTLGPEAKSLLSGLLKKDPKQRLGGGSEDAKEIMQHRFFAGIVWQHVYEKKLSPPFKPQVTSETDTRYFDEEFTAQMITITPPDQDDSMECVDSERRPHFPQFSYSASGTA
UniProt P28482, whole entry: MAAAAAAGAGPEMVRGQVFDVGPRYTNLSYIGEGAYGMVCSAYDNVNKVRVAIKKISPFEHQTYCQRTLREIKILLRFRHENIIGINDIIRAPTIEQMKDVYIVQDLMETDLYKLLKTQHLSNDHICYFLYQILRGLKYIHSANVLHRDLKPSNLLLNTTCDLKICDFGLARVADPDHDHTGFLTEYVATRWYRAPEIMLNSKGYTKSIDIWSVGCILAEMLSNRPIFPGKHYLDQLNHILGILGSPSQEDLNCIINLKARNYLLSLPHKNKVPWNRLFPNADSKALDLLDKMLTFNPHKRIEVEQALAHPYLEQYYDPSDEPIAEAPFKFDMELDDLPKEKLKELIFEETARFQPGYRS
UniProt O75582, whole entry, looked up: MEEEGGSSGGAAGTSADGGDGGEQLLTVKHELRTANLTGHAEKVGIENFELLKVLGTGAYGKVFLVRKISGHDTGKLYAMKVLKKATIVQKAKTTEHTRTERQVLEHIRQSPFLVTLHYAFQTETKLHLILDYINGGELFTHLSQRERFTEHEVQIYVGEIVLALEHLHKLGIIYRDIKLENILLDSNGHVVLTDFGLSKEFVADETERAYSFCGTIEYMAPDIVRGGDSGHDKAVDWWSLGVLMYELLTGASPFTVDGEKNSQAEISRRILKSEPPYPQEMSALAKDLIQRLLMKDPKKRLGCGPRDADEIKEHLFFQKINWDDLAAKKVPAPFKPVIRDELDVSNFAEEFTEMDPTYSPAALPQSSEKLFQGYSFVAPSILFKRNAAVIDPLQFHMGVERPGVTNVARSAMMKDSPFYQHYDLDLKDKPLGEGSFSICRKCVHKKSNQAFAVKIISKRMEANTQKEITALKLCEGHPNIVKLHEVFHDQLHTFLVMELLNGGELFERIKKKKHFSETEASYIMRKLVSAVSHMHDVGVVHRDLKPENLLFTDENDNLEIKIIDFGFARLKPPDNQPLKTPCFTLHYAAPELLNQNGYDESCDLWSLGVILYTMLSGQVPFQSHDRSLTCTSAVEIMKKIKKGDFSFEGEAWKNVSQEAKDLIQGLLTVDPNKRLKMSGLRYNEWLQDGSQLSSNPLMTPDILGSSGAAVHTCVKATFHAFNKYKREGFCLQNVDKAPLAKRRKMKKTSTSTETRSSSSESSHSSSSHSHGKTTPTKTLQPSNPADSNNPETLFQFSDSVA
UniProt P30281: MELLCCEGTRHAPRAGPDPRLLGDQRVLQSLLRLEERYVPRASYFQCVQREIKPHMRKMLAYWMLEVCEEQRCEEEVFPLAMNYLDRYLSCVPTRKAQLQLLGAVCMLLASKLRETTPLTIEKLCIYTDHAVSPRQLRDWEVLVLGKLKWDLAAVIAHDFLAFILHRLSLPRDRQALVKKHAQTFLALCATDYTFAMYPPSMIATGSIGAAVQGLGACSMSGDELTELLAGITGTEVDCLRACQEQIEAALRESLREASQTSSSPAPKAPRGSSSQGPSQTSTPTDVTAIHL
UniProt Q15759, whole entry: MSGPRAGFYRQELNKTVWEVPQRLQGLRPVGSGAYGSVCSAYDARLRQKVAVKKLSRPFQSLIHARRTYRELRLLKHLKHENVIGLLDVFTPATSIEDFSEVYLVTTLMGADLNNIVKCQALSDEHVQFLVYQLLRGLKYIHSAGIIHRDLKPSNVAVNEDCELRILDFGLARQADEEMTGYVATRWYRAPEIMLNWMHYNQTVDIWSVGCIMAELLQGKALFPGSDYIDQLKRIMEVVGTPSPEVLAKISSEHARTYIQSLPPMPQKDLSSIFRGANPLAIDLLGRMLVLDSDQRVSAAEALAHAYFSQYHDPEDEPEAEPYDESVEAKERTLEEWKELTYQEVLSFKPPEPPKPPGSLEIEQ
UniProt P49841: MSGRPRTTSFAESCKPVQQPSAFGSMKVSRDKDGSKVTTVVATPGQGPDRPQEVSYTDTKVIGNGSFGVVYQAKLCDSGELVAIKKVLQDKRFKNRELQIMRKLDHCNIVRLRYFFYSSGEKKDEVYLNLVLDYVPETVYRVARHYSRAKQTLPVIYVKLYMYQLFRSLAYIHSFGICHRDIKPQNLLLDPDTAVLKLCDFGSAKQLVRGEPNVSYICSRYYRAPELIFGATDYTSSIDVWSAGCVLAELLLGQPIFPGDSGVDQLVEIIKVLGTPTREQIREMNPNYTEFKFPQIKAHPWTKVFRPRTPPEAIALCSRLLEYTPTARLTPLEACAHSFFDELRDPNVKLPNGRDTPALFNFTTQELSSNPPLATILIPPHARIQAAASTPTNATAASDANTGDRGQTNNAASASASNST

Experiment [3] has as its target Casein kinase 2 (Homo sapiens) (UniProt P67870+P68400+P19784+Q8NEV1). The experiment can be described thus: Inhibition of human CK2 at 1.0 uM by Eurofins kinase assay relative to control. The format is protein assay.
Experiment [4] concerns the target 5'-AMP-activated protein kinase catalytic subunit alpha-1 (Homo sapiens) (UniProt Q13131). The experiment can be described thus: Inhibition of human full length recombinant AMPKalpha-1 at 1.0 uM by Eurofins kinase assay relative to control. The note with it: time 40.0 min.
Experiment [5] has as its target Cyclin-dependent kinase 5/CDK5 activator 1 (Homo sapiens) (UniProt Q00535+Q15078). Kind of experiment: Inhibition of human CDK5/p35 at 1.0 uM by Eurofins kinase assay relative to control. In kind it is protein-complex assay.
In experiment [6] the target is Cyclin-dependent kinase 2/cyclin A (Homo sapiens) (UniProt P24941+P20248+P78396). Kind of experiment: Inhibition of human CDK2/cyclinA at 1.0 uM by Eurofins kinase assay relative to control. In kind it is protein-complex assay.
For experiment [7], the target named is T2, Mitogen-activated protein kinase 12 (Homo sapiens) (UniProt P53778).
T2 sequence (whole entry): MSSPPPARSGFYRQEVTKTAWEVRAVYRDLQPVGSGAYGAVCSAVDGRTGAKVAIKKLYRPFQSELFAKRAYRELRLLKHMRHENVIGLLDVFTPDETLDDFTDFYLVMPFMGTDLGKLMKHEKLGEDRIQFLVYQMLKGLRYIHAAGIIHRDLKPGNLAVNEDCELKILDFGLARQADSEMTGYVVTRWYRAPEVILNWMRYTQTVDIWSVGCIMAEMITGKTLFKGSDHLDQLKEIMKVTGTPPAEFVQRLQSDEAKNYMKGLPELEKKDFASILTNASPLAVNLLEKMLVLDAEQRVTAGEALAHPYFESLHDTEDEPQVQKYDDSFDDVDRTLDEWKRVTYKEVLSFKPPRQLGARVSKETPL
The experiment can be described thus: Inhibition of human SAPK3 at 1.0 uM by Eurofins kinase assay relative to control.

Experiment [8] concerns the target 5'-AMP-activated protein kinase catalytic subunit alpha-2 (Homo sapiens) (UniProt P54646). Kind of experiment: Inhibition of human AMPKalpha2 at 1.0 uM by Eurofins kinase assay relative to control.
Experiment [9] concerns the target Tyrosine-protein kinase Lck (Homo sapiens) (UniProt P06239). The experiment can be described thus: Inhibition of human LCK at 1.0 uM by Eurofins kinase assay relative to control.
For experiment [10], the target named is RAC-alpha serine/threonine-protein kinase (Homo sapiens) (UniProt P31749). The experiment can be described thus: Inhibition of human PKB-alpha at 1.0 uM by Eurofins kinase assay relative to control.
Experiment [11] addresses T3, Serine/threonine-protein kinase Sgk1 (Homo sapiens) (UniProt O00141).
T3 sequence (whole entry): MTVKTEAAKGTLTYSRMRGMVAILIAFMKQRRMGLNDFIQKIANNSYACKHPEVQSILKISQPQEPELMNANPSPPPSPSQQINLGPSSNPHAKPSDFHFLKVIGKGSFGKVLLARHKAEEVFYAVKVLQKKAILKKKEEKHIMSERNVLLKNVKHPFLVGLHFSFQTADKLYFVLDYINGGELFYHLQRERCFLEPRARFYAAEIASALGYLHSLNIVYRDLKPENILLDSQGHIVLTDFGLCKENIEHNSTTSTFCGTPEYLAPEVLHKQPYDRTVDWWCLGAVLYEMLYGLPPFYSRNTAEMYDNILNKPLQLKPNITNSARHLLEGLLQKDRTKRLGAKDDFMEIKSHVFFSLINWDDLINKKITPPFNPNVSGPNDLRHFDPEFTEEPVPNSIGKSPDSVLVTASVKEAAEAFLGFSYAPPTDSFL
The experiment can be described thus: Inhibition of human SGK at 1.0 uM by Eurofins kinase assay relative to control.

Experiment [12] addresses Mitogen-activated protein kinase 1 (Homo sapiens) (UniProt P28482). The experiment can be described thus: Inhibition of human MAPK1 at 1.0 uM by Eurofins kinase assay relative to control.
Experiment [13] deals with T4, MAP kinase-activated protein kinase 5 (Homo sapiens) (UniProt Q8IW41).
T4 sequence (whole entry): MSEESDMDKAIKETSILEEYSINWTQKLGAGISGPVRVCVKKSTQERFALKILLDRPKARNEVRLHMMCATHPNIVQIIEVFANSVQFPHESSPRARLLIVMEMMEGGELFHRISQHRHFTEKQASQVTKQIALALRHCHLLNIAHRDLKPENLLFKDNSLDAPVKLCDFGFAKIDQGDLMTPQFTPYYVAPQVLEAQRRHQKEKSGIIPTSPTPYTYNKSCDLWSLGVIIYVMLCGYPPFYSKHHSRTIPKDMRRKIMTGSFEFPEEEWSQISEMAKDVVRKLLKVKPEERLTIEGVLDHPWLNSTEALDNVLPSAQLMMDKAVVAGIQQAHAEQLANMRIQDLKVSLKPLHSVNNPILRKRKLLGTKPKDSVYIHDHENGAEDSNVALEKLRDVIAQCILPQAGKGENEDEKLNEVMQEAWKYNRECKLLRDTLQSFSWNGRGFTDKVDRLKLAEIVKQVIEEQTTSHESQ
Kind of experiment: Inhibition of human PRAK at 1.0 uM by Eurofins kinase assay relative to control.

Experiment [14] concerns the target Mitogen-activated protein kinase 14 (Homo sapiens) (UniProt Q16539). The experiment can be described thus: Inhibition of human SAPK2a at 1.0 uM by Eurofins kinase assay relative to control.
The target in experiment [15] is Ribosomal protein S6 kinase alpha-5 (Homo sapiens) (UniProt O75582). The experiment can be described thus: Inhibition of human MSK1 at 1.0 uM by Eurofins kinase assay relative to control.
Experiment [16] concerns the target CDK4/Cyclin D3 (Homo sapiens) (UniProt P11802+P30281). The experiment can be described thus: Inhibition of human CDK4/cyclinD3 at 1.0 uM by Eurofins kinase assay relative to control. The format is protein-complex assay.
Experiment [17] addresses Mitogen-activated protein kinase 11 (Homo sapiens) (UniProt Q15759). The experiment can be described thus: Inhibition of human SAPK2b at 1.0 uM by Eurofins kinase assay relative to control.
For experiment [18], the target named is Protein kinase C alpha type (Homo sapiens) (UniProt P17252). The experiment can be described thus: Inhibition of human PKC-alpha at 1.0 uM by Eurofins kinase assay relative to control.
Experiment [19] has as its target Glycogen synthase kinase-3 beta (Homo sapiens, UniProt P49841). The experiment can be described thus: Inhibition of GSK-3 beta in human SH-SY5Y cells assessed as reduction in Abeta-induced tau reduction in p-tau/GAPDH ratio at 20 mM preincubated for 1 hrs followed by A-beta (25 to 35) stimulation and measured after 6 hrs by Western blot analysis. In kind it is cell-based. The note with it: time 7.0 hrs.

Usually inhibition stands for the drop in the measured response relative to a control, in per cent. Turning to `O=C(Nc1cnccc1N1CCOCC1)c1c[nH]c2ncc(-c3ccccc3)cc12`, the inhibition in [1] came out at 92%; in experiment [2], 75.5%; in [3], 90.5%; in experiment [4] it was 108%; in experiment [5], 21%; in experiment [6], 27.5%. Besides, the inhibition is 102% in experiment [7]; 102% in experiment [8]; 84.5% in experiment [9]; 106% in [10]; 97% in experiment [11]; 104% in experiment [12]. The inhibition was determined as 113% in experiment [13]; 96.5% in experiment [14]; 92.5% in experiment [15]; 96.5% in experiment [16]; 107% in experiment [17]; 35.5% in [18].

With `[Cl-].[Li+]`, in [19], the Ratio was determined as 11.

For `O=C(Nc1cnccc1-c1ccc2c(c1)OCO2)c1c[nH]c2ncc(-c3ccccc3)cc12`, the inhibition in [1] was 94%; in experiment [2], 79%; in experiment [3], 102%; in experiment [4] it was 94%; in experiment [5], 18%; in experiment [6], 17%. For the same molecule, the inhibition in [7] was 102%; in experiment [8], 106%; in [9] it was 92.5%; in experiment [10], 104%; in experiment [11], 99%; in [12], 99%. In addition, the inhibition in experiment [13] turned out to be 116%; in experiment [14] it was 98.5%; in experiment [15] it was 42%; in experiment [16], 87.5%; in experiment [17], 102%; in experiment [18] it was 71%.

As for `O=C(Nc1cnccc1-c1ccc2c(c1)OCO2)c1c[nH]c2ncc(C3=CC=CC(=S)C3)cc12`, the inhibition in [1] turned out to be 87%; in experiment [2] it was 82%; in [3], 94%; in experiment [4], 111%; in [5], 24.5%; in experiment [6], 22.5%. Moreover, the inhibition in experiment [7] turned out to be 98.5%; in experiment [8], 99%; in experiment [9] it was 72.5%; in experiment [10], 102%; in [11] it was 85%; in experiment [12] it was 91%. The inhibition worked out at 126% in experiment [13]; 98% in [14]; 46.5% in [15]; 84% in experiment [16]; 102% in experiment [17]; 83% in [18].

The values are drawn from ChEMBL document CHEMBL6153053, “Synthesis and biological evaluation of novel pyrrolo[2,3-b]pyridine derivatives as potent GSK-3β inhibitors for treating Alzheimer's disease” (Eur J Med Chem, 2025).
